{"sequences": {"note": "Protein sequences, listed by entry. Tags and fused reporters are not part of them. Lines headed by an entry give the natural chain unless they say otherwise; changes in a name come on top. Residues count along the entry.", "UniProt P35414": "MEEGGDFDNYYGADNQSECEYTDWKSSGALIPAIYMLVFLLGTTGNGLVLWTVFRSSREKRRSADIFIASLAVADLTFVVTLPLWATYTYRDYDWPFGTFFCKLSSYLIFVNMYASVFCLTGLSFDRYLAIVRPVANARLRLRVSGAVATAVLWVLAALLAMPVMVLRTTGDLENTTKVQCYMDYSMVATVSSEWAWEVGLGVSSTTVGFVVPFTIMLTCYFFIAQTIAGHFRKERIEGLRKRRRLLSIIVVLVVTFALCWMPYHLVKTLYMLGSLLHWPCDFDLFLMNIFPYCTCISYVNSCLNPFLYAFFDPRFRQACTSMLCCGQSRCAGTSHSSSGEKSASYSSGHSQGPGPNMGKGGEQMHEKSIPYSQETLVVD", "UniProt P41143, whole entry": "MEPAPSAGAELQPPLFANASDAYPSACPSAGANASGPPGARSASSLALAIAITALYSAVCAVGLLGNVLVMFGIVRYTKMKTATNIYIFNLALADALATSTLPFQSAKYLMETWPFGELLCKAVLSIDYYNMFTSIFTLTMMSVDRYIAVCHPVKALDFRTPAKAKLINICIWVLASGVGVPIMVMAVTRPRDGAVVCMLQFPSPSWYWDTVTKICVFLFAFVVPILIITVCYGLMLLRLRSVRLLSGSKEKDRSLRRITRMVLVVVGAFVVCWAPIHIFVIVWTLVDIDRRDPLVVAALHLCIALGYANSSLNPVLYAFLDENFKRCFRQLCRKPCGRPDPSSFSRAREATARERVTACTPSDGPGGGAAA", "UniProt P41146": "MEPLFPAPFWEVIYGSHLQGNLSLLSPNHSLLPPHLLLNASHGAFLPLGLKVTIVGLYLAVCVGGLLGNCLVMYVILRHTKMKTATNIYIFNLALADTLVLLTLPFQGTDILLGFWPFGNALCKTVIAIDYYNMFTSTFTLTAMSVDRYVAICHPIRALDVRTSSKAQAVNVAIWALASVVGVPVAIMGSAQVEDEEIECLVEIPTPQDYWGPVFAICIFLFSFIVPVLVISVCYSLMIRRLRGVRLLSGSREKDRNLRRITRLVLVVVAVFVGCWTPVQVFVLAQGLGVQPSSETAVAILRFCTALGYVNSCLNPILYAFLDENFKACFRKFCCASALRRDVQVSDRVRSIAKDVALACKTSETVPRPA", "UniProt P32241, 31-457": "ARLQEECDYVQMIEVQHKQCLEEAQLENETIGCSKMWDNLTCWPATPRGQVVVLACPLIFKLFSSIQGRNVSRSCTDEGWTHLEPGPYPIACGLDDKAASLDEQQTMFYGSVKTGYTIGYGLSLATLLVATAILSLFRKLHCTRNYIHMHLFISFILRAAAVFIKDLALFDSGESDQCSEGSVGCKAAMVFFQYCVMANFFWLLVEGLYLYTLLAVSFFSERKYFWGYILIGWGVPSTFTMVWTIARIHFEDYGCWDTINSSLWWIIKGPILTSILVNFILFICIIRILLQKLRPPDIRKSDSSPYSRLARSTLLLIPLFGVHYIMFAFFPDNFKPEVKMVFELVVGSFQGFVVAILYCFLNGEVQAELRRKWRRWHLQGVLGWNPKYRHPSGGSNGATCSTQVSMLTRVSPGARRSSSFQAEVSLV"}, "source": "paper PMC9798004", "about": "(Frontiers in Psychiatry, 2022)", "details_in_all_cases": "screen, control agonist; CHO, RT, 2HR", "key": {"AGTRL1": {"molecular_target": "AGTRL1 (Homo sapiens, UniProt P35414)"}, "OPRD1": {"molecular_target": "OPRD1 (Homo sapiens, UniProt P41143)"}, "OPRL1": {"molecular_target": "OPRL1 (Homo sapiens, UniProt P41146)"}, "VIPR1": {"molecular_target": "VIPR1 (Homo sapiens, UniProt P32241)"}}, "data": [{"substance": "Apelin-13", "values": [{"measurement": "EC80", "setting": "AGTRL1", "result": 2.28, "unit": "nM"}]}, {"substance": "DADLE", "values": [{"measurement": "EC80", "setting": "OPRD1", "result": 7.54, "unit": "nM"}]}, {"substance": "Orphanin FQ", "values": [{"measurement": "EC80", "setting": "OPRL1", "result": 17.2, "unit": "nM"}]}, {"substance": "VIP: control agonist for VIPR1 and VIPR2", "values": [{"measurement": "EC80", "setting": "VIPR1", "result": 3.7, "unit": "nM"}]}]}
